For this series, the system named is pregnant Sprague Dawley rats (embryo/fetal development). The settings on record: in vivo. From the text:
Study Summary Rat Embryofetal:
The objective of this study design was to evaluate the potential effects of disclosed compounds on embryo/fetal development when given subcutaneously to pregnant rats once every three days during the critical period of organogenesis (Gestation Days 6-18). Female, Sprague Dawley rats, approximately 10 weeks of age, time bred, were ordered from a certified vendor and housed individually housed in stainless steel cages suspended over flush pans, on a 12-hour light-dark cycle (0700-1900) at 20-26° C. and 30-70% humidity. Rats were fed a standard rodent chow and provided water ad libitum. […]
Compounds were formulated using 100% DMSO mixed in Sterile Water for Injection, resulting in 2% DMSO solution in water. […] Body weights was recorded for all animals on Gestation Days 5 (purpose of randomization), 6, 9, 12, 15, 18, and 20 (scheduled euthanasia). Food consumption by weight was recorded on Gestation Days 6, 9, 12, 15, 18, and 20 (scheduled termination).
At necropsy, the dams were examined visually for external abnormalities including palpable masses. The abdominal, thoracic, and cranial cavities and their contents were examined for abnormalities and findings will be recorded. […] For dead fetuses and late resorptions, crown-to-rump length and weight were recorded, if possible, and the fetus was discarded. […]

Counter-ions that a name gives are not always drawn.

As to `CO[C@@H]1[C@H](OC(=O)N2CC(OC(=O)N3CCOCC3)C2)CC[C@]2(CO2)[C@H]1[C@@]1(C)O[C@@H]1CC=C(C)C` [Example 71, 1-(((3R,4S,5S,6R)-5-methoxy-4-((2R,3R)-2-methyl-3-(3-methylbut-2-enyl)oxiran-2-yl)-1-oxaspiro[2.5]octan-6-yloxy)carbonyl)azetidin-3-yl morpholine-4-carboxylate formate], the “Rat Embryofetal @6 mpk” value is “Negative”.

Regarding `CO[C@@H]1[C@H](OC(=O)N2CC(CCC3CCN(CC(F)F)CC3)C2)CC[C@]2(CO2)[C@H]1[C@@]1(C)O[C@@H]1CC=C(C)C` [Example 91, (3R,4S,5S,6R)-5-methoxy-4-((2R,3R)-2-methyl-3-(3-methylbut-2-enyl)oxiran-2-yl)-1-oxaspiro[2.5]octan-6-yl 3-(2-(1-(2,2-difluoroethyl)piperidin-4-yl)ethyl)azetidine-1-carboxylate formate], the “Rat Embryofetal @6 mpk” value was “Positive”.
